{"source": "patent US20160231323A1", "about": "“PROTECTION OF TCR SIGNALING CHAINS IN CANCER PATIENTS AND ENHANCEMENT OF CAR-T CELL THERAPY” (Batu Biologics, Inc., priority 2015, published 2016)", "origin": "cited, not measured here", "system": "tumour mass", "details": "trials where IL-2 increased NK activity"}
{"substance": "IL-2: immunomodulatory compound (cytokine) administered to increase NK activity in cancer patients", "values": [{"measurement": "effect on the tumour mass", "result": "minimal"}]}
